Converted amounts (≈) assume the structure as drawn.
Assays:
Staphylococcus aureus [1] = assay: Antibacterial activity against Staphylococcus aureus ATCC 29213 assessed as inhibition of visible growth measured after 18 to 24 hrs by broth dilution method; type: functional; details: time 18-24 hrs
Staphylococcus aureus [2] = assay: Antibacterial activity against methicillin-resistant Staphylococcus aureus NCTC 10442 assessed as inhibition of visible growth measured after 18 to 24 hrs by broth dilution method; type: functional; details: time 18-24 hrs
Staphylococcus aureus [3] = assay: Antibacterial activity against methicillin-resistant Staphylococcus aureus N315 assessed as inhibition of visible growth measured after 18 to 24 hrs by broth dilution method; type: functional; details: time 18-24 hrs
Escherichia coli = assay: Antibacterial activity against Escherichia coli ATCC 25922 assessed as inhibition of visible growth measured after 18 to 24 hrs by broth dilution method; type: functional; details: time 18-24 hrs
[4] = Haemolytic activity in rabbit red blood cells incubated for 60 mins by k multi-mode reader relative to control; type: toxicity, cell-based, Oryctolagus cuniculus, Erythrocyte
Pseudomonas aeruginosa = assay: Antibacterial activity against Pseudomonas aeruginosa ATCC 9027 assessed as inhibition of visible growth measured after 18 to 24 hrs by broth dilution method; type: functional; details: time 18-24 hrs

For CC[C@H](C)[C@H](NC(=O)CN)C(=O)NCC(=O)N[C@@H](C)C(=O)N[C@H](C(=O)N[C@@H](CC(C)C)C(=O)N[C@@H](CCCCN)C(=O)N[C@H](C(=O)N[C@@H](CC(C)C)C(=O)N[C@H](C(=O)N[C@H](C(=O)NCC(=O)N[C@@H](CC(C)C)C(=O)N1CCC[C@H]1C(=O)N[C@@H](C)C(=O)N[C@@H](CC(C)C)C(=O)N[C@H](C(=O)N[C@@H](CO)C(=O)N[C@@H](Cc1c[nH]c2ccccc12)C(=O)N[C@H](C(=O)N[C@@H](CCCCN)C(=O)N[C@@H](CCCNC(=N)N)C(=O)N[C@@H](CCCCN)C(=O)N[C@@H](CCCNC(=N)N)C(=O)N[C@@H](CCC(N)=O)C(=O)N[C@@H](CCC(N)=O)C(N)=O)[C@@H](C)CC)[C@@H](C)CC)[C@@H](C)O)[C@@H](C)O)C(C)C)C(C)C [MELITTIN], the MIC (Staphylococcus aureus [1]) was 3.12 µg/mL (≈ 1.1 µM), the MIC (Staphylococcus aureus [2]) was 3.12 µg/mL (≈ 1.1 µM) and the MIC (Staphylococcus aureus [3]) was 1.56 µg/mL (≈ 0.548 µM). The MIC (Escherichia coli) was 3.12 µg/mL (≈ 1.1 µM), the HC50 at 1 h [4] was 19.1 µg/mL and the MIC (Pseudomonas aeruginosa) was 6.25 µg/mL (≈ 2.2 µM).

Source: ChEMBL document CHEMBL5236632, “Membrane-Active Nonivamide Derivatives as Effective Broad-Spectrum Antimicrobials: Rational Design, Synthesis, and Biological Evaluation” (J Med Chem, 2022)
